Values quoted from earlier work as cited in article PMC3124785 (ACS chemical neuroscience, 2011).

Biological target: eNOS
Settings: read-out: Ki eNOS; cited from earlier work

In the case of `N=C(NCCC[C@H](N)C(=O)O)N[N+](=O)[O-]` [N^G-nitro-L-arginine], the Ki is listed as 40 to 200 nM.
